Values of other authors as cited in publication PMC11600623 (Clinical and Translational Science, 2024).

System: FLT3-ITD-positive patients with relapsed/refractory (R/R) AML
Details: single-agent quizartinib; cited from earlier work

SMILES: CC(C)(C)c1cc(NC(=O)Nc2ccc(-c3cn4c(n3)sc3cc(OCCN5CCOCC5)ccc34)cc2)no1 [quizartinib]
- OS as compared to salvage chemotherapy: improved OS
